Experimental data from patent US20220229068A1, “DETECTION OF PROTEIN TO PROTEIN INTERACTIONS” (THE GOVERNING COUNCIL OF THE UNIVERSITY OF TORONTO, priority 2019, published 2022).
One block for each substance: values may come before it.

Columns and labels:
Test in all cases: SIMPL ELISA, bait-IN/prey-CIC
[1] = target: CKS1B (prey, CIC format) (human) (UniProt P61024)
[2] = target: DDIT3 (prey, CIC format) (human) (UniProt P35638)
[3] = target: ARFIP2 (prey, CIC format) (human) (UniProt P53365)
[4] = target: BTRC (prey, CIC format) (human) (UniProt Q9Y297)
[5] = target: RAN (prey, CIC format) (human) (UniProt P62826)
[6] = target: S100B (prey, CIC format) (human) (UniProt P04271)

PLU mean [1]: 1.88
PLU mean [2]: 0.275
Substance: CDK2 (bait, IN format) (from UniProt P24941 1-298)

PLU mean [3]: 0.672
PLU mean [4]: 0.256
Substance: RAC1 (bait, IN format) (from UniProt P63000 1-192)

PLU mean [5]: 0.105
PLU mean [6]: 0.217
Substance: S100A6 (bait, IN format) (from UniProt P06703 1-90)
